System: adult bed bugs resistant strain (UMC) colony
Test: Contact lethal time of pyrethroids and rosemary oil on treated filter paper, Example 4
Type: in vivo, bed bug
Settings: rate 0.01 % by weight
Description: The control is 100 μL […]. Filter paper was then placed on top of the solution.

## CC(C)=CC1C(C(=O)OCc2coc(Cc3ccccc3)c2)C1(C)C (centres unmarked) [Resmethrin, resmethrin]
  LT50: 31.94 min
  LT95: 417.12 min
